Laboratory results: PMC6287539 (International Journal for Parasitology: Drugs and Drug …, 2018)

Legend:
[1] = target: T1, Hco-ACC-1 (in the Hco-ACC-1/2 heteromeric channel) (Haemonchus contortus, UniProt A0A219KVV5+A0A219KWM7); assay: two-electrode voltage clamp in Xenopus oocytes, dose-response; format: cell-based
T1 sequence (A0A219KVV5 23-459): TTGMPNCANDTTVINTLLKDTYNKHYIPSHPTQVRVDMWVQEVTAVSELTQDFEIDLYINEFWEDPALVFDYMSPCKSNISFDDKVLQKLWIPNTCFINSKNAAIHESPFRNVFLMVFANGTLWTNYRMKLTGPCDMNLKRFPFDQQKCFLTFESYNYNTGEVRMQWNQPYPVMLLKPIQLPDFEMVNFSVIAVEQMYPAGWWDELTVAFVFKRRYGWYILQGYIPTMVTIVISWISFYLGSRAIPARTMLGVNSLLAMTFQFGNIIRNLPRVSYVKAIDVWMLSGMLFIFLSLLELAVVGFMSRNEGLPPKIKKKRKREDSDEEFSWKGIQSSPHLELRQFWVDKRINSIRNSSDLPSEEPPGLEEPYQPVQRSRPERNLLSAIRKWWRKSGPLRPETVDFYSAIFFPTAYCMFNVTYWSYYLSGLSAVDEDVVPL
T1 sequence (A0A219KWM7 18-443): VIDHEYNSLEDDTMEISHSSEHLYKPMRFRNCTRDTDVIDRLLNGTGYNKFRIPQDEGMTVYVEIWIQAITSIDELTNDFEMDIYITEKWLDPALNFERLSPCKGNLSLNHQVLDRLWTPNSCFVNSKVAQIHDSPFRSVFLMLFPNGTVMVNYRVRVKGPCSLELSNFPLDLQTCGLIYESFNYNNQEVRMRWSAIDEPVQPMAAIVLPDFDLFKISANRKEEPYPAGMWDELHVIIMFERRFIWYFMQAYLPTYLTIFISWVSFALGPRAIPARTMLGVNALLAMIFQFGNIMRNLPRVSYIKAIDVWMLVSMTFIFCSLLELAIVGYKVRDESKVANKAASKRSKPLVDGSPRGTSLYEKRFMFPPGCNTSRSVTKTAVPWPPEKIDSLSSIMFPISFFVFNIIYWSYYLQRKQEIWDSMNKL

[2] = target: T2, Hco-ACC-2 (homomeric channel) (Haemonchus contortus, UniProt A0A219KWM7); assay: as above; format: cell-based
T2 sequence (A0A219KWM7 18-443): T1 sequence (A0A219KWM7 18-443)

## CC(=O)OCC[N+](C)(C)C [acetylcholine]
[1]
  EC50: 5.9 ± 1 µM
[2]
  EC50: 19 ± 1 µM
